In article PMC4432619 one finds Kd, dH and stoichiometry N data, which are given here for two substances.

The test has as its target FMNL2N(S171DD) (residues 1–379) (human) (UniProt Q96PY5). In words: ITC; GppNHp-loaded GTPase at 500 μM injected from the syringe into 50 μM FMNL in the cell; 20 mM Tris/HCl pH 8, 150 mM NaCl, 5 mM MgCl2, 1 mM DTE, 298 K; MicroCal iTC200. (In general: In ITC the heat of successive injections is recorded.)

The Kd is the constant that tells how readily two partners part at equilibrium. Lower therefore signals a tighter complex. The stoichiometry N is the number of molecules, sites or subunits per partner or assembly. In turn, “Rac1(A95E,E131K,K132N) (1–177) (from UniProt P63000 1-177) (domain or fragment)” gave a Kd of 0.9 µM, a dH of -2.35 kcal/mol and a stoichiometry N of 1.01.
The substance “Rac1(E131K,K132N) (1–177) (from UniProt P63000 1-177) (domain or fragment)” came in with a Kd of 10.7 µM, a dH of -0.63 kcal/mol and a stoichiometry N of 1.07.
